Like-named read-outs stand apart in the source and are kept apart here.
Test system: HeLa cells stably expressing HaloGFP
Assay: Chloroalkane penetration assay (CAPA), membrane permeability and cellular uptake
Assay type: cell-based
From the text: Since PSD-95 is located intracellularly, it is essential for any drug targeting PSD-95 to efficiently cross the cell membrane. To assess the cellular permeability and delivery to the cytosol of the compounds as defined herein, the cellular chloroalkane penetration assay (CAPA) may be used (Peraro et al. 2018). This assay takes advantage of a modified haloalkane dehalogenase designed to covalently bind chloroalkane (CA) molecules. A HeLa cell line expressing a fusion protein comprising a HaloTag, a green fluorescent protein (GFP) and a mitochondria-targeting peptide is used to report cytosolic delivery. The general format of the CAPA is a pulse-chase assay (Deprey & Kritzer, 2020). Cells expressing the HaloTag enzyme are incubated with CA-tagged peptides. […] Following a washing step, the cells are incubated with a CA-tagged dye that quantitatively penetrates the cell membrane and reacts with remaining unreacted HaloTag sites (chase step). Flow cytometry is used to measure the fluorescence intensity of the cells and the measured fluorescence is inversely proportional to the amount of CA-peptides that reach the penetrated the cells and can thus be used to assess cytosolic delivery. The obtained data is commonly expressed as CP50 values, the concentration at which 50% cell penetration is observed. The CP50 value of a compound may be measured as described in example 4. […]

Row | Structure (SMILES) | CP50 [µM] | CP50 (CA-tagged NPEG4-(IETDV)2 with various CPP-tags, 4 h at 37° C., mean ± SEM (Table 11, FIG. 8)) [µM]
1 | CC[C@H](C)[C@H](NC(=O)CCOCCOCCN(CCOCCOCCC(=O)N[C@H](C(=O)N[C@@H](CCC(=O)O)C(=O)N[C@H](C(=O)N[C@@H](CC(=O)O)C(=O)N[C@H](C(=O)O)C(C)C)[C@@H](C)O)[C@@H](C)CC)C(=O)[C@H](CCCCN)NC(=O)[C@H](CCCCN)NC(=O)[C@H](Cc1c[nH]c2ccccc12)NC(=O)[C@H](CCCCN)NC(=O)[C@H](CCSC)NC(=O)[C@H](CCCNC(=N)N)NC(=O)[C@H](CCCNC(=N)N)NC(=O)[C@H](CC(N)=O)NC(=O)[C@H](CCC(N)=O)NC(=O)[C@H](Cc1ccccc1)NC(=O)[C@H](Cc1c[nH]c2ccccc12)NC(=O)[C@@H](NC(=O)[C@H](CCCCN)NC(=O)[C@@H](NC(=O)[C@H](CCC(N)=O)NC(=O)[C@H](CCCNC(=N)N)NC(=O)CCC(=O)NCCOCCOCCCCCCCl)[C@@H](C)CC)[C@@H](C)CC)C(=O)N[C@@H](CCC(=O)O)C(=O)N[C@H](C(=O)N[C@@H](CC(=O)O)C(=O)N[C@H](C(=O)O)C(C)C)[C@@H](C)O [Compound 47] | 5.0 ± 0.4 | 
2 | CC[C@@H](C)[C@@H](NC(=O)[C@@H](CCCCN)NC(=O)[C@H](NC(=O)[C@@H](CCC(N)=O)NC(=O)[C@@H](CCCNC(=N)N)NC(=O)CCC(=O)NCCOCCOCCCCCCCl)[C@H](C)CC)C(=O)N[C@H](Cc1c[nH]c2ccccc12)C(=O)N[C@H](Cc1ccccc1)C(=O)N[C@H](CCC(N)=O)C(=O)N[C@H](CC(N)=O)C(=O)N[C@H](CCCNC(=N)N)C(=O)N[C@H](CCCNC(=N)N)C(=O)N[C@H](CCSC)C(=O)N[C@H](CCCCN)C(=O)N[C@H](Cc1c[nH]c2ccccc12)C(=O)N[C@H](CCCCN)C(=O)N[C@H](CCCCN)C(=O)N(CCOCCOCCC(=O)N[C@H](C(=O)N[C@@H](CCC(=O)O)C(=O)N[C@H](C(=O)N[C@@H](CC(=O)O)C(=O)N[C@H](C(=O)O)C(C)C)[C@@H](C)O)[C@@H](C)CC)CCOCCOCCC(=O)N[C@H](C(=O)N[C@@H](CCC(=O)O)C(=O)N[C@H](C(=O)N[C@@H](CC(=O)O)C(=O)N[C@H](C(=O)O)C(C)C)[C@@H](C)O)[C@@H](C)CC [Compound 49] |  | 18.8 ± 1.5
